{
  "source": "patent US4560662A",
  "about": "“Streptomyces antibioticus ATCC 31771 and process for obtaining same” (priority 1981, dated 1985)",
  "format": "physicochemical",
  "details": "25° C.",
  "method": "Stability in acidic environment at 25° C. of the novel\nantibiotics in comparison with erythromycin A\nt 1/2 represents the half life time of the antibiotics as determined by\nhigh pressure liquid phase chromatography (HPLC).",
  "note": "Where two headings read alike, the source gives them in different places.",
  "data": [
    {"substance": "3-O-oleandrosyl-5-O-desosaminyl-(8S)-8,19-epoxyerythronolide B [P 15153]", "values": [
      {"measurement": "t 1/2", "setting": "pH 3.0", "value": "> 100", "unit": "h"},
      {"measurement": "t 1/2", "setting": "pH 4.0", "value": "> 100", "unit": "h"}
    ]}
  ]
}
